Drawing on article PMC6061170, “Synthesis and biological investigations of 3β-aminotropane arylamide derivatives with atypical antipsychotic profile” (Medicinal Chemistry Research, 2018), this text covers IC50 and Ki for 1 compound.

Protein sequences, listed by entry. Tags and fused reporters are not part of them.
UniProt P19327, whole entry: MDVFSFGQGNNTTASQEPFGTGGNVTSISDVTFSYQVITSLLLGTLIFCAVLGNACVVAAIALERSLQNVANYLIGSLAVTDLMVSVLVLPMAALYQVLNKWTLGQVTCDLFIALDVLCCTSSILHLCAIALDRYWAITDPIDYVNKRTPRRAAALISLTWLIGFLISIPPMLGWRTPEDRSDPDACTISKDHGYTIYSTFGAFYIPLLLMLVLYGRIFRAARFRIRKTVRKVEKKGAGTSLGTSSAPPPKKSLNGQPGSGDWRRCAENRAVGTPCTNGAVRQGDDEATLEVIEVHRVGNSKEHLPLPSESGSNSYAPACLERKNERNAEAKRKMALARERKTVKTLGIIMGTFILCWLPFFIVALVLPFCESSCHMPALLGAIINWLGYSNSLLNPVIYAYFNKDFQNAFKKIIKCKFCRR

The assay deals with T1, serotonin 5-HT1A receptors (Rattus norvegicus, UniProt P19327).
T1 construct: from tissue; host or cells: rat brain tissues
The assay is described as follows: Radioligand binding assay, 5-HT1A receptors. As to the method:
All compounds were tested for their affinities for 5-HT1A, 5-HT2A, and D2 receptors according to previously described procedures (Stefanowicz et al. [2016]).
Competition binding studies were performed according to a previously described procedure in rat brain tissues (Stefanowicz et al. [2016]).

On to `NCCc1c[nH]c2ccc(O)cc12` [Serotonin, reference compound], for which the IC50 (in general, the point on the concentration scale where inhibition reaches its midpoint) was found to be 3.4 ± 0.2 nM and affinity was put at a Ki of 1.2 ± 0.1 nM.
